# Earlier results, collected in US20150272967A1, “EXTREMELY HIGH LOADING DOSE” (priority 2013, published 2015).
# Details: higher doses associated with increased risk of hypercalciuria, hypercalcemia
substance,measurement,value
Vitamin D,Tolerable Upper Intake Level (UL),100 mcg per day
